Earlier results, collected in patent US5602094A, “Treatment of tumors” (priority 1994, dated 1997).

Test system: phospholipase A2 (PLA2)
Details: cited from earlier work

mellitin
PLA2 enzyme activity enhancement: capacity to enhance PLA2 enzyme activity
